Laboratory results published in patent US20080275058A1, “N-Substituted-1H-Quinoline-2,4-Diones, Preparation Method Thereof, And Pharmaceutical Composition Containing The Same” (KOREA RESEARCH INSTITUTE OF CHEMICAL TECHNOLOGY, priority 2005, published 2008).

The chains behind the UniProt entries cited, without tags or fusion partners.
UniProt P50406, whole entry: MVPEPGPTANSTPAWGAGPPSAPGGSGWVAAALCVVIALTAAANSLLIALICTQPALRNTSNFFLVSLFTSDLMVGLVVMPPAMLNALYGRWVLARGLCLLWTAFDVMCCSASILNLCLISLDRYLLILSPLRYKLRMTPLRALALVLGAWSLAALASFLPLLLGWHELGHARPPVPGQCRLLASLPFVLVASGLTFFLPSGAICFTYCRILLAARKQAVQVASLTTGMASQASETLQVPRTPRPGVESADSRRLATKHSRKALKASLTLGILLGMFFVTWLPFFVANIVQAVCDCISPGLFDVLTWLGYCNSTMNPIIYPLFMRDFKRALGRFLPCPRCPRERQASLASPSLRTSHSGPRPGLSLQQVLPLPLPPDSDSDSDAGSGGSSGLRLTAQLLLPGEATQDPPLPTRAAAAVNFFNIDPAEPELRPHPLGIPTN

Target: 5-HT6 receptors (Homo sapiens, UniProt P50406)
Test: Adenylyl cyclase activity (cAMP accumulation) in HeLa cells transfected with human 5-HT6 receptor
Assay type: cell-based
Settings: 5-HT-induced cAMP increase

With `CSc1ccc2c(c1)C(N1CCN(C)CC1)Cc1ccccc1S2` (stereo not shown) [methiothepin, reference compound] the “increase in cAMP level inhibited (FIG. 1)” value was “inhibited”.
